Literature values, collected in patent publication US9849143B2, “Broad spectrum antiviral and methods of use” (The Burlington HC Research Group, Inc., priority 2006, dated 2017).

Experiments:
[1] = mice, cited from earlier work
[2] = rhesus macaques, cited from earlier work

CNCCCNCCSP(=O)(O)O
maximally tolerated dose (MTD) ([1]; administered i.p.): 893 mg/kg BW
maximally tolerated dose (MTD) ([1]; administered p.o.): 1488 mg/kg BW
Concentration (plasma) ([2]; 1 h after duodenal administration of 150 mg/kg BW of parent drug): 11.75 µg/mL
Concentration (plasma) ([2]; 2 h after duodenal administration of 150 mg/kg BW of parent drug): 17.08 µg/mL
Concentration (plasma) ([2]; 6 h after duodenal administration of 150 mg/kg BW of parent drug): 15.50 µg/mL

Where two headings read alike, the source gives them in different places.
